# scFv variants of Ab-14 (light chain) against a SARS-CoV-2 spike peptide

Source: Engelhart et al. 2022 (doi:10.1038/s41597-022-01779-4), MIT Lincoln Laboratory and A-Alpha Bio; data file from the FLAb repository.

The target is the same throughout: PDVDLGDISGINAS, from the HR2 region of SARS-CoV-2 spike.

Parent: Ab-14, a human scFv built as VH, the linker GGGGSGGGGSGGGGS, VL. Only the CDRs of the light chain vary.
VH: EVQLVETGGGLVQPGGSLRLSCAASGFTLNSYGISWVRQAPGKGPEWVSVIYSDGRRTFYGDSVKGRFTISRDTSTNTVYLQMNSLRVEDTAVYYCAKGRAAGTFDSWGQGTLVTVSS
VL: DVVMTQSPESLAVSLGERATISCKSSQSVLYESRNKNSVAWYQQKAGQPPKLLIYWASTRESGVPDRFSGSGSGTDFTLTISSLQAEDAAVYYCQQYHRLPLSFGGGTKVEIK

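Phage display of a naive human antibody library on the peptide gave the parent. The library (AAYL50) carries one to three amino acid substitutions per variant, with no insertions or deletions. The scFvs were displayed on barcoded MATa yeast, the peptide on MATalpha yeast. The frequency of each diploid, read from paired DNA barcodes, reflects how well the two displayed proteins bind. Scores were corrected for input abundance and mapped to Kd with protein pairs of known affinity run in the same pool. There are three technical replicates.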

Sequences are complete VL domains.
This list gathers variants with a substitution at Y31 (VL, numbered from residue 1).
Numbers give log10(Kd / nM), so 0 is 1 nM and 3 is 1 µM. Smaller is tighter.
The mean shown is taken over the replicates in which the pair was detected.
Where no diploid with the target was found in that replicate, the entry reads "nd": below detection, most likely a poor binder, though not proof of it.
As a blank, each scFv also met three strains without target: over library AAYL50, 18% of these pairings were detected, typically at 4.19 and seldom below 2.99. For each scFv, signals with the empty controls are counted beside the result.

For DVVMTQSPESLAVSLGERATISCKSSISVLHENRNKNSVAWYQQKAGQPPKLLIYWASTRESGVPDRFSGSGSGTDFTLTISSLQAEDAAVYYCQQYHRLPLSFGGGTKVEIK, the assay gave 0.68, 0.96, 0.80 (mean 0.81; controls 1 of 9).
For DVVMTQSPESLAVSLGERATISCKSSQSVLIESINKNSVAWYQQKAGQPPKLLIYWASTRESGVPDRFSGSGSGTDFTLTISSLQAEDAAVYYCQQYHRLPLSFGGGTKVEIK, the assay gave 0.64, 0.85, 0.68 (mean 0.72; controls 1 of 9).
For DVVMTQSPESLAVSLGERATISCKSSWSVLGESRNKNSVAWYQQKAGQPPKLLIYWASTRESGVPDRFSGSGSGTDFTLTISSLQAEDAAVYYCQQYHTLPLSFGGGTKVEIK, the assay gave 0.46, 0.67, 0.52 (mean 0.55; controls 2 of 9).
For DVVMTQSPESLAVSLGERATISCKSSQSVLFESRNKNSVAWYQQKAGQPPKLLIYWASPRESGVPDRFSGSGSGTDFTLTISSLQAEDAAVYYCQIYHRLPLSFGGGTKVEIK, the assay gave 5.07, nd, nd (controls 1 of 9).
For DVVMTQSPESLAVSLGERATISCKSSQSFLQESRNKNSVAWYQQKAGQPPKLLIYWDSTRESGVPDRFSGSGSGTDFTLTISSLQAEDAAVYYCQQYHRLPLSFGGGTKVEIK, the assay gave 2.84, 2.49, 3.16 (mean 2.83; controls 1 of 9).
For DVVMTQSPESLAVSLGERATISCDSSQSVLGESRNKNSVAWYQQKAGQPPKLLIYWASTREWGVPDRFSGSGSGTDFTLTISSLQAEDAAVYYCQQYHRLPLSFGGGTKVEIK, the assay gave 2.33, 2.46, 1.75 (mean 2.18; controls 0 of 9).
For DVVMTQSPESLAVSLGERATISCKSSQSVLCESRNKNSVAWYQQKAGQPPKLLIYWASTRYSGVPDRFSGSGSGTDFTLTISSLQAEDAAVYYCQLYHRLPLSFGGGTKVEIK, the assay gave 4.23, 2.66, 4.53 (mean 3.81; controls 5 of 9).
For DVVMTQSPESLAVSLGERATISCKSSQSVLNESRNKNSVAWYQQKAGQPPKLLIYWASTRESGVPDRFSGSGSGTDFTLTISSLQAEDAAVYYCQQYHRLPLLFGGGTKVEIK, the assay gave 2.27, 1.89, 2.00 (mean 2.05; controls 0 of 9).
For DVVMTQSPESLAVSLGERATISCKSSQSVLAMSRCKNSVAWYQQKAGQPPKLLIYWASTRESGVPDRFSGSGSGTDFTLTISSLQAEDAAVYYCQQYHRLPLSFGGGTKVEIK, the assay gave nd, 3.26, 3.74 (mean 3.50; controls 2 of 9).
For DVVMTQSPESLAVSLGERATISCKSSQSVLLESRNKNEVAWYQQKAGQPPKLLIYWAYTRESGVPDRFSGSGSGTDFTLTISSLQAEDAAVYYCQQYHRLPLSFGGGTKVEIK, the assay gave 4.40, nd, nd (controls 0 of 9).
For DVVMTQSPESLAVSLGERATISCKSSQSVLDESTNKNSVAWYQQKAGQPPKLLIYWASTRESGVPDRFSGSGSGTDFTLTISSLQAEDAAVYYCQQYHRDPLSFGGGTKVEIK, the assay gave nd, nd, 3.43 (controls 2 of 9).
For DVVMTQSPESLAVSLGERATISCKSSSSVLGESRNKNSVAWYQQKAGQPPKLLIYWASTRESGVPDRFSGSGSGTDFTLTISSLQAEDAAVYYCQQAHRLPLSFGGGTKVEIK, the assay gave 1.94, 2.20, 2.16 (mean 2.10; controls 0 of 9).
For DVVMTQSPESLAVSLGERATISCKSSQSVLIESRNKNSVAWYQQKAGQPPKLLIYWASMRESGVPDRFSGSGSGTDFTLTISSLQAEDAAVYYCQQFHRLPLSFGGGTKVEIK, the assay gave 1.40, 3.15, 1.74 (mean 2.10; controls 0 of 9).
For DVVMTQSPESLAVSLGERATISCKQSQSVLWESRNKKSVAWYQQKAGQPPKLLIYWASTRESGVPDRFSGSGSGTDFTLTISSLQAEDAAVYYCQQYHRLPLSFGGGTKVEIK, the assay gave 0.93, 1.40, 1.84 (mean 1.39; controls 1 of 9).
For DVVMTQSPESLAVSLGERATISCKSSQSVLCESRNKNSFAWYQQKAGQPPKLLIYWASTRESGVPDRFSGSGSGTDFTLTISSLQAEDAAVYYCQQWHRLPLSFGGGTKVEIK, the assay gave 4.09, nd, nd (controls 0 of 9).
For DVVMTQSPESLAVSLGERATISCKSSQSVLVESRYKNSVIWYQQKAGQPPKLLIYWASTRESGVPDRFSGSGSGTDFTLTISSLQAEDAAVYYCQQYHRLPLSFGGGTKVEIK, the assay gave nd, nd, nd (controls 0 of 9).
For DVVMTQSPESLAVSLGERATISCKSSQSVLCESRNKNSVAWYQQKAGQPPKLLIYWQSTRESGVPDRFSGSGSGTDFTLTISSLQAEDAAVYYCQQYHRLPLEFGGGTKVEIK, the assay gave 5.51, nd, nd (controls 2 of 9).
For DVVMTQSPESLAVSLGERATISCCSSQSVLWESRNKNSVAWYQQKAGQPPKLLIYWASTRESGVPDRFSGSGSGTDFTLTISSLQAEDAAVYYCQAYHRLPLSFGGGTKVEIK, the assay gave nd, nd, 3.86 (controls 1 of 9).
For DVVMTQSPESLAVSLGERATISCKSSQSVVEESRNKNSVAWYQQKAGQPPKLLIYTASTRESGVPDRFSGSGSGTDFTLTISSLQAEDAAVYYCQQYHRLPLSFGGGTKVEIK, the assay gave 1.19, 1.24, 1.15 (mean 1.19; controls 0 of 9).
For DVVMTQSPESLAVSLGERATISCKSSQSVLPLSRNKASVAWYQQKAGQPPKLLIYWASTRESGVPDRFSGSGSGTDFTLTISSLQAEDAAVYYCQQYHRLPLSFGGGTKVEIK, the assay gave 2.63, 3.02, 2.47 (mean 2.70; controls 1 of 9).
For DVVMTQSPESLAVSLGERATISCKSSQSFLHESRNKNSVAWYQQKAGQPPKLLIYWASTRESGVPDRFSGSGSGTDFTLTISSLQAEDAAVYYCQQYHRLVLSFGGGTKVEIK, the assay gave nd, 4.85, nd (controls 1 of 9).
For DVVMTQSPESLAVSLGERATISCKSSQSVLNESKNKNSVAWYQQKAGQPPKLLIYWASTRESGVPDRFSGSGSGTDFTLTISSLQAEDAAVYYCQQYDRLPLSFGGGTKVEIK, the assay gave 0.50, 0.99, 1.00 (mean 0.83; controls 0 of 9).
For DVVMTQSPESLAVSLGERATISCKQSQSVLEESRNKNSVAWYQQKAGQPPKLLIYWASTVESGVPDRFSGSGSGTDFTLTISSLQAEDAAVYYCQQYHRLPLSFGGGTKVEIK, the assay gave 2.99, 1.74, 1.90 (mean 2.21; controls 1 of 9).